ChEMBL document CHEMBL5576133, “Development of VU6036864: A Triazolopyridine-Based High-Quality Antagonist Tool Compound of the M5 Muscarinic Acetylcholine Receptor” (J Med Chem, 2024)

The chains behind the UniProt entries cited, without tags or fusion partners.
UniProt P08684, whole entry: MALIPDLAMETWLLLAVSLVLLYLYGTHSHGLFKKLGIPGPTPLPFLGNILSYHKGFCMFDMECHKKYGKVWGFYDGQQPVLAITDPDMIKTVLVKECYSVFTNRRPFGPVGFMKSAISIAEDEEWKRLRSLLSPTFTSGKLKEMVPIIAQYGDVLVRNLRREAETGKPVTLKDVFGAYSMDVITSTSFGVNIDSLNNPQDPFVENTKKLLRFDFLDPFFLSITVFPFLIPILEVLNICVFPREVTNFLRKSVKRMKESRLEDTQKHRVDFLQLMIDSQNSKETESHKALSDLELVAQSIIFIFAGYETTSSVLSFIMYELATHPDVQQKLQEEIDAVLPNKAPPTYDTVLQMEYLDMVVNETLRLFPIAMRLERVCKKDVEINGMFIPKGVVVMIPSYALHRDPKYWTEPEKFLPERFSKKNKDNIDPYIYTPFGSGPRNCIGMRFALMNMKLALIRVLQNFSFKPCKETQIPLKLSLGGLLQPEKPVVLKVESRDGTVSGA

Tests used:
Cytochrome P450 3A4 = Cytochrome P450 3A4 (Homo sapiens, UniProt P08684); test: Time dependent inhibition of CYP3A4 (unknown origin) at 10 uM; format: ADME
[1] = Unbound Cmax in male Sprague-Dawley rat at 3 mg/kg, po in 10% Tween 80 in water formulation administered as single dose and measured upto 24 hrs by dose escalation based LC-MS/MS analysis; format: ADME, organism-based; conditions: in vivo
[2] = Metabolic stability in monkey hepatocytes assessed as parent compound remaining; format: ADME, cell-based, Macaca mulatta, Hepatocyte; conditions: rhesus monkey
[3] = Unbound Cmax in male Sprague-Dawley rat at 30 mg/kg, po in 10% Tween 80 in water formulation administered as single dose and measured upto 24 hrs by dose escalation based LC-MS/MS analysis; format: ADME, organism-based; conditions: in vivo
[4] = Unbound brain concentration in male Sprague-Dawley rat at 10 mg/kg, po administered as single dose and measured after 2 hrs by LC-MS/MS analysis; format: ADME, organism-based; conditions: in vivo
[5] = Metabolic stability in rat hepatocytes assessed as parent compound remaining; format: ADME, cell-based, Hepatocyte
[6] = Unbound plasma concentration in male Sprague-Dawley rat at 10 mg/kg, po administered as single dose and measured after 1 hr by LC-MS/MS analysis; format: ADME, organism-based; conditions: in vivo
[7] = Unbound brain concentration in male Sprague-Dawley rat at 10 mg/kg, po administered as single dose and measured after 1 hr by LC-MS/MS analysis; format: ADME, organism-based; conditions: in vivo
[8] = Unbound AUCinfinity in male Sprague-Dawley rat at 30 mg/kg, po in 10% Tween 80 in water formulation administered as single dose and measured upto 24 hrs by dose escalation based LC-MS/MS analysis; format: ADME, organism-based; conditions: in vivo
[9] = Drug metabolism in human hepatocytes assessed as N-(3-(7-chloro-[1,2,4]triazolo[1,5-a]pyridin-6-yl)-5-hydroxypentyl)-2-methylthiazole-5-sulfonamide formation; format: ADME, cell-based, Hepatocyte
[10] = Unbound AUCinfinity in male Sprague-Dawley rat at 100 mg/kg, po in 10% Tween 80 in water formulation administered as single dose and measured upto 24 hrs by dose escalation based LC-MS/MS analysis; format: ADME, organism-based; conditions: in vivo
[11] = Drug metabolism in rat hepatocytes assessed as N-(3-(7-chloro-[1,2,4]triazolo[1,5-a]pyridin-6-yl)-5-hydroxypentyl)-2-methylthiazole-5-sulfonamide formation; format: ADME, cell-based, Hepatocyte
[12] = Drug metabolism in dog hepatocytes assessed as N-(3-(7-chloro-[1,2,4]triazolo[1,5-a]pyridin-6-yl)-5-hydroxypentyl)-2-methylthiazole-5-sulfonamide formation; format: ADME, cell-based, Canis lupus familiaris, Hepatocyte
[13] = Unbound AUCinfinity in male Sprague-Dawley rat at 3 mg/kg, po in 10% Tween 80 in water formulation administered as single dose and measured upto 24 hrs by dose escalation based LC-MS/MS analysis; format: ADME, organism-based; conditions: in vivo

SMILES | TDI (Cytochrome P450 3A4) | fCmax [1] [µM] | Stability [2] [%] | fCmax [3] [µM] | Drug uptake(free) [4] [nM] | Stability [5] [%] | Cp(f) [6] [nM] | Drug uptake(free) [7] [nM] | fAUC [8] [µM·h] | Drug metabolism [9] | fAUC [10] [µM·h] | Drug metabolism [11] | Drug metabolism [12] | fAUC [13] [µM·h]
[2H]C1([2H])CC(c2cn3ncnc3cc2Cl)CC([2H])([2H])N1S(=O)(=O)c1cnc(C)o1 | Not Active |  |  |  |  |  |  |  |  |  |  |  |  | 
Cc1ncc(S(=O)(=O)N2CCC(c3cn4ncnc4cc3Cl)CC2)s1 | Not Active | 51.7 | 81.1 | 171 | 169 | 49.6 | 160 | 153 | 1.796 | Metabolite_Notdetected | 2.94 | Metabolite_Notdetected | Metabolite_Notdetected | 0.22
Cc1ncc(S(=O)(=O)N2CCC(c3cn4ncnc4cc3Cl)CC2)o1 | Not Active |  |  |  |  |  |  |  |  |  |  |  |  | 
